These results are taken from article PMC6071920 (MedChemComm, 2016).

Protein sequences, listed by entry. Tags and fused reporters are not part of them.
UniProt P30536, whole entry, stated change not applied: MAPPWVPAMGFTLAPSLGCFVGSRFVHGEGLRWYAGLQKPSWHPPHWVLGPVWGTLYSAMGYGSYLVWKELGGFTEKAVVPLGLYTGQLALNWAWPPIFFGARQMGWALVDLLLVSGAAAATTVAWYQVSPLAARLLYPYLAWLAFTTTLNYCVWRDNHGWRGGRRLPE

This assay concerns the target TSPO A147T (Homo sapiens, UniProt P30536). The settings on record: read-out: Kd at TSPO A147T; saturation binding, membranes from 293T cells over-expressing TSPO A147T.

With `CCC(C)N(C)C(=O)c1cc2ccccc2c(-c2ccccc2Cl)n1` (stereo not shown) [[^3H]-PK 11195], the Kd worked out at 0.0134 ± 0.0022 µM.
